Assay results from PubChem BioAssay AID624288 (National Center for Advancing Translational Sciences (NCATS), 2012).
This is a selection; strong and weak results do not stand in their true shares. Inconclusive results are not listed. Calls of active or inactive are those of the source. Calls come from the whole dose curve; cell line not stated here.

test: qHTS for Antagonists of gsp, the Etiologic Mutation Responsible for Fibrous Dysplasia/McCune-Albright Syndrome: qHTS; settings: gsp-mutant cells, cAMP HTRF, 30 min; at 76.9 µM (top of the series) unless noted; note: nearly all actives have a fitted effect of over 65% in size
% is set by controls: 0 for no effect and ±100 for the full control effect.

Row | SMILES | activity change, negative = inhibition
1 | CN(C)C1(CNC(=O)c2ccc(S(C)(=O)=O)cc2)CCCCC1 | inactive: 9.06%
2 | CCCC1OP(=O)(Nc2ccccc2)OCC1CC (stereo not drawn) | inactive: -1.16%
3 | O=C(/C=C/c1ccccc1)OC1CN2CCC1CC2 (stereo not drawn) | inactive: 12.8%
4 | NC(=O)Nc1ccc([As](=O)(O)O)cc1 | inactive: 11.9%
5 | CN(C(=O)Cc1ccccc1)[C@@H]1CC[C@]2(CCCO2)C[C@H]1N1CCCC1 | inactive: 1.02%
6 | CCOP1(=S)c2c(C)nn(CCC#N)c2N=C(c2ccc(F)cc2)N1C (stereo not drawn) | inactive: -5.49%
7 | N#CCCN(C(=O)COC(=O)C(O)(c1ccccc1)c1ccccc1)c1ccc(F)cc1 | inactive: 4.11%
8 | CN(C(=O)Cc1ccc(Cl)c(Cl)c1)[C@H]1CC[C@@]2(CCCO2)C[C@@H]1N1CCCC1 | inactive: 5.03%
9 | CC1=NCCc2c1[nH]c1ccccc21.O=[N+]([O-])c1cc([N+](=O)[O-])c(O)c([N+](=O)[O-])c1 | inactive: 4.62%
10 | O=[N+]([O-])c1ccc2c(c1)nnn2O | inactive: 10.6%
11 | O=P(Nc1nccs1)(c1ccccc1)c1nc2ccccc2s1 (stereo not drawn) | inactive: 7.57%
12 | O=P(Nc1nccs1)(Oc1ccccc1)Oc1ccccc1 | inactive: -4.58%
13 | CCOP1(=S)c2c(C)nn(CCC#N)c2N=C(c2ccccc2F)N1C (stereo not drawn) | inactive: -1.09%
14 | CS(=O)(=O)c1cc([N+](=O)[O-])c2no[n+]([O-])c2c1 | inactive: -1.95%
15 | O=C(O)COc1ccc([As](=O)(O)O)cc1[N+](=O)[O-] | inactive: 10%
16 | Nc1ccccc1[As](=O)(O)c1ccccc1 | inactive: 3.98%
17 | Nc1cccc2c([As](=O)(O)O)cccc12 | inactive: 0.397%
18 | CP(=O)(Nc1cccc(Br)c1)Oc1ccccc1 (stereo not drawn) | inactive: 11.2%
19 | Cc1cc(C)cc(OP(C)(=O)Nc2ccccn2)c1 (stereo not drawn) | inactive: 0.813%
20 | CCCOP(=S)(Nc1nc(N)cc(=O)[nH]1)OCCC | inactive: -4.97%
21 | Cc1ccc(C)c(NP(C)(=O)Oc2ccccc2)c1 (stereo not drawn) | inactive: -0.81%
22 | CCOP(=O)(Nc1cccc2ccccc12)OCC | inactive: 5.59%
23 | O=C(OC1CN2CCC1CC2)c1ccc(Cl)cc1 (stereo not drawn) | inactive: 5.69%
24 | COc1ccccc1OP(C)(=O)Nc1cccc(Br)c1 (stereo not drawn) | inactive: -9.2%
25 | COc1cc(C(=O)NCC2(N3CCOCC3)CCCCC2)cc(Cl)c1OC(C)C | inactive: -15.1%
26 | O=[As](O)(O)c1cccnc1 | inactive: 5.88%
27 | Cc1cc(C)cc(OP(C)(=O)Nc2ccc(C)cc2C)c1 (stereo not drawn) | inactive: 1.98%
28 | O=[As](O)(c1cccc(O)c1)c1cccc(O)c1 | inactive: 3.84%
